Experimental data from patent US20250206721A1, “Prostaglandin Receptor EP2 Antagonists, Derivatives, and Uses Related Thereto” (Emory University, priority 2019, published 2025).
Values belong to the compound of their own block, whether it stands above or below them.

The chains behind the UniProt entries cited, without tags or fusion partners. Where a name states a change or a piece, a line headed by the entry shows the natural chain unless it says otherwise.
UniProt P43116: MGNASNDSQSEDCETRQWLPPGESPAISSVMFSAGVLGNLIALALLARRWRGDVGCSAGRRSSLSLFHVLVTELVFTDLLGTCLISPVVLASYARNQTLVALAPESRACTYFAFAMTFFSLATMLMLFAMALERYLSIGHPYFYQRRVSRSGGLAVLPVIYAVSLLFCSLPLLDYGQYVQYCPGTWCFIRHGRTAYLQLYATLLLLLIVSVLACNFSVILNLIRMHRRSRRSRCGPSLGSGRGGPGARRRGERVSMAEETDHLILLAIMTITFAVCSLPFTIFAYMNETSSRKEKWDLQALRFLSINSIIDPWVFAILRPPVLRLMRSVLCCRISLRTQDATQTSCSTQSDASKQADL
UniProt P43119: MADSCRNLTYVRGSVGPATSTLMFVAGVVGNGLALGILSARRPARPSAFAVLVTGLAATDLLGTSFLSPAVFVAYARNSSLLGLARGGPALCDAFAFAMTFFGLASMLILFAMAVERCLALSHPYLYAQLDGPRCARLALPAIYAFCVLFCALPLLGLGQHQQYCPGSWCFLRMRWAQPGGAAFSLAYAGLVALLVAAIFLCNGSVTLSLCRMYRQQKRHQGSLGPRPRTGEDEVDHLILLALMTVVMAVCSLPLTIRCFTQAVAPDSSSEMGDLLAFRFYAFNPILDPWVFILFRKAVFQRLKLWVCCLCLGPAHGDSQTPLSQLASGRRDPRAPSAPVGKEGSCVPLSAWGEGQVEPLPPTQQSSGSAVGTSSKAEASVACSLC

Tests used:
[1] = target: T1, human EP2 receptor (Homo sapiens, UniProt P43116); test: Cell-based cAMP TR-FRET assay, Schild KB on EP2; conditions: for Kb: Schild KB, agonist PGE2, antagonist concentration 1 μM, C6G cells expressing human EP2
T1 construct: expressed in transfected cells

[2] = Mouse liver microsomal (MLM) stability; conditions: for MLM T½: 1 μM compound, 0.125 mg/mL liver microsomes, NADPH; for fold higher half-life in liver microsomes: 24i vs 20o, 20c vs 20b, 20f vs 20e
[3] = target: human IP receptor (Homo sapiens, UniProt P43119); test: Cell-based cAMP TR-FRET assay on IP (agonist iloprost)
[4] = Kinetic aqueous solubility in PBS by nephelometry; conditions: PBS buffer (pH 7.4) with 1% DMSO

- Kb [1]: 23.2 nM
Structure (SMILES): Cc1[nH]c2ccccc2c1CCNC(=O)c1ccc(-c2ccccc2)nc1 [Compound 8a, N-(2-(2-Methyl-1H-indol-3-yl)ethyl)-6-phenylnicotinamide]

- Kb [1]: 9.5 nM
- fold improved EP2 potency in comparison to 2a ([1]; comparator 2a): 2 fold
Structure (SMILES): COc1cccc(-c2ccc(C(=O)NCCc3c(C)[nH]c4ccccc34)cn2)c1 [Compound 8b, 6-(3-Methoxyphenyl)-N-(2-(2-methyl-1H-indol-3-yl)ethyl)nicotinamide]

- MLM T½ [2]: very short half-life
Structure (SMILES): COc1ccccc1-c1ccc(C(=O)NCCc2c(C)[nH]c3ccccc23)cn1 [Compound 8c, 6-(2-Methoxyphenyl)-N-(2-(2-methyl-1H-indol-3-yl)ethyl)nicotinamide]

- MLM T½ [2]: very short half-life
Structure (SMILES): Cc1[nH]c2ccccc2c1CCNC(=O)c1ccc(-c2ccccc2O)nc1 [Compound 8d, 6-(2-Hydroxyphenyl)-N-(2-(2-methyl-1H-indol-3-yl)ethyl)nicotinamide]

- Kb [1]: 48.4 nM
Structure (SMILES): Cc1[nH]c2ccccc2c1CCNC(=O)c1ccc(-c2ccccc2F)nc1 [Compound 8e, 6-(2-Fluorophenyl)-N-(2-(2-methyl-1H-indol-3-yl)ethyl)nicotinamide]

- MLM T½ [2]: very short half-life
Structure (SMILES): COc1cc(OC)cc(-c2ccc(C(=O)NCCc3c(C)[nH]c4ccccc34)cn2)c1 [Compound 8g, 6-(3,5-Dimethoxyphenyl)-N-(2-(2-methyl-1H-indol-3-yl)ethyl)nicotinamide]

- Kb [1]: 48.6 nM
Structure (SMILES): COc1cccc(-c2ccc(C(=O)NCCc3c(C)[nH]c4ccccc34)nc2)c1 [Compound 11a, 5-(3-Methoxyphenyl)-N-(2-(2-methyl-1H-indol-3-yl)ethyl)picolinamide]

- Kb [1]: 33.6 nM
Structure (SMILES): COc1cc(OC)cc(-c2ccc(C(=O)NCCc3c(C)[nH]c4ccccc34)nc2)c1 [Compound 11b, 5-(3,5-Dimethoxyphenyl)-N-(2-(2-methyl-1H-indol-3-yl)ethyl)picolinamide]

- MLM T½ [2]: very short half-life
Structure (SMILES): COc1ccccc1-c1ncc(C(=O)NCCc2c(C)[nH]c3ccccc23)cn1 [Compound 14a, 2-(2-Methoxyphenyl)-N-(2-(2-methyl-1H-indol-3-yl)ethyl)pyrimidine-5-carboxamide]

- Kb [1]: 10.7 nM
Structure (SMILES): Cc1[nH]c2ccccc2c1CCNC(=O)c1cnc(Nc2ccccn2)nc1 [Compound 20a, N-(2-(2-Methyl-1H-indol-3-yl)ethyl)-2-(pyridin-2-ylamino)pyrimidine-5-carboxamide]

- fold higher half-life in liver microsomes [2]: 2 fold
- Kb [1]: 6.4 nM
Structure (SMILES): Cc1[nH]c2ccccc2c1CCNC(=O)c1cnc(Nc2cc(F)ccn2)nc1 [Compound 20c, 2-((4-Fluoropyridin-2-yl)amino)-N-(2-(2-methyl-1H-indol-3-yl)ethyl)pyrimidine-5-carboxamide]

- Kb [1]: 6.1 nM
Structure (SMILES): Cc1cccc(Nc2ncc(C(=O)NCCc3c(C)[nH]c4ccccc34)cn2)n1 [Compound 20e, N-(2-(2-Methyl-1H-indol-3-yl)ethyl)-2-((6-methylpyridin-2-yl)amino)pyrimidine-5-carboxamide]

- Kb [3]: > 10000 nM
Structure (SMILES): Cc1cc(C)nc(Nc2ncc(C(=O)NCCc3c(C)[nH]c4ccc(F)cc34)cn2)c1 [Compound 24a, 2-((4,6-Dimethylpyridin-2-yl)amino)-N-(2-(5-fluoro-2-methyl-1H-indol-3-yl)ethyl)pyrimidine-5-carboxamide]

- fold higher half-life in liver microsomes [2]: 3 fold
- Aqueous Solubility [4]: 57 µM
Structure (SMILES): Cc1cc(C)nc(Nc2ncc(C(=O)NCC(O)c3c(C)[nH]c4ccccc34)cn2)c1 (centres unmarked) [Compound 24i, 2-((4,6-Dimethylpyridin-2-yl)amino)-N-(2-hydroxy-2-(2-methyl-1H-indol-3-yl)ethyl)pyrimidine-5-carboxamide]
